Measurements: PMC9913351, “Computational Approach to Drug Penetration across the Blood-Brain and Blood-Milk Barrier Using Chromatographic Descriptors” (Cells, 2023)

The chains behind the UniProt entries cited, without tags or fusion partners. Residues count along the entry.
UniProt P02769, 25-607: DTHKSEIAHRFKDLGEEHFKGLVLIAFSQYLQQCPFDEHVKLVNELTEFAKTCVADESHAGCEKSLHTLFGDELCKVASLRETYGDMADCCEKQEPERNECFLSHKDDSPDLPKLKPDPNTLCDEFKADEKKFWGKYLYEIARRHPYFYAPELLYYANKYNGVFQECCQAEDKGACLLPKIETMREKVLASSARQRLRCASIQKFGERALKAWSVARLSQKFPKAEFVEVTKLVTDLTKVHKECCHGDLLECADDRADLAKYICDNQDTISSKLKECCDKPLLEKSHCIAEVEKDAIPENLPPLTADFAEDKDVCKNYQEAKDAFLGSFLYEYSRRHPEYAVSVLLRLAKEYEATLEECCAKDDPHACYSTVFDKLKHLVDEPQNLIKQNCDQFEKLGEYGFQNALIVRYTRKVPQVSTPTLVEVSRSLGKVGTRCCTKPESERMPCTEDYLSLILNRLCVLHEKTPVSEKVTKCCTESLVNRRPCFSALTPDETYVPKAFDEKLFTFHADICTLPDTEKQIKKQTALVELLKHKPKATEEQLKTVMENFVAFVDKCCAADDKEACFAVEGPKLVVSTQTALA
UniProt P02768, 25-609: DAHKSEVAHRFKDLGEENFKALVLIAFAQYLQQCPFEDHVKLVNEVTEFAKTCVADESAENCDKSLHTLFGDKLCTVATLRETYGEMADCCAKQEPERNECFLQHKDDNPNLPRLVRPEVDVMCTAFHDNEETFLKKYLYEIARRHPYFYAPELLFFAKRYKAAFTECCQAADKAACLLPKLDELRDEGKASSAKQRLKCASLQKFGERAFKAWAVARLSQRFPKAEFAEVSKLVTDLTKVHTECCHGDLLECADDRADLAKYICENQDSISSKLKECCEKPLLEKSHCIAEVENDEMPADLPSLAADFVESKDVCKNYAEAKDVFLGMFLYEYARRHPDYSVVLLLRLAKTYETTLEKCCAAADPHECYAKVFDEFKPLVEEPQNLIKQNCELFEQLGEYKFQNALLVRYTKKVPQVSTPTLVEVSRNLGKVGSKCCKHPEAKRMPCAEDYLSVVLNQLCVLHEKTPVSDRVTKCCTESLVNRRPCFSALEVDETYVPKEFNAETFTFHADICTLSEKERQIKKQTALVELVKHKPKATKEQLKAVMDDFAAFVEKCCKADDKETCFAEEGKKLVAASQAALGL

Tests used:
bovine serum albumin BSA [1] = target: T1, bovine serum albumin BSA (Bos taurus, UniProt P02769); assay: RP TLC on silanized RP-2 plates impregnated with bovine serum albumin; format: in vitro ADME; details: Rf value from RP plate impregnated with 2 mg/mL BSA solution; mobile phase pH 7.4
T1 construct: purchased Sigma Aldrich

bovine serum albumin BSA [2] = target: T1, bovine serum albumin BSA; assay: NP TLC on silica gel plates impregnated with bovine serum albumin; format: in vitro ADME; details: for NP: Rf value from NP plate impregnated with 2 mg/mL BSA solution, mobile phase pH 7.4
[3] = set-up: method as in earlier work; details: code describing the acid-base properties; source Chembl; cited from earlier work
human serum albumin HSA = target: T2, human serum albumin HSA (Homo sapiens, UniProt P02768); assay: HPLC on immobilized human serum albumin column (HPLC-HSA); format: in vitro ADME; details: logarithm of retention factor, mobile phase pH 7.4
T2 construct: 4 × 10 mm
For a/b/n code in this document: key: (-1) - acids; (0) - neutrals; (1) - bases.

## CNCC[C@H](Oc1cccc2ccccc12)c1cccs1 [duloxetine]
Bovine serum albumin BSA [1]
  RP: 0.53
Bovine serum albumin BSA [2]
  NP: 0.33

## Nc1cc(N2CCCCC2)nc(N)[n+]1[O-] [minoxidil]
[3]
  a/b/n code: 0
Bovine serum albumin BSA [2]; Rf from BSA-modified NP plate / Rf from clear one (control)
  NP/C: 0.98
Bovine serum albumin BSA [2]
  NP: 0.42

## CC(C)(C)NC[C@H](O)COc1nsnc1N1CCOCC1 [timolol]
Human serum albumin HSA
  log kHSA: -0.88

## COc1cccc(C2(O)CCCCC2CN(C)C)c1 (stereo not shown) [tramadol]
Bovine serum albumin BSA [1]
  RP: 0.64
